Laboratory results from patent publication US6087361A, “Aryl-imidazolines and aryl-imidazoles useful as α-2 adrenergic agonists without cardiovascular side effects” (Allergan Sales, Inc., priority 1997, dated 2000).

Sequences of proteins named here, by UniProt entry; tags and fusion partners are left off.
UniProt P19328, whole entry: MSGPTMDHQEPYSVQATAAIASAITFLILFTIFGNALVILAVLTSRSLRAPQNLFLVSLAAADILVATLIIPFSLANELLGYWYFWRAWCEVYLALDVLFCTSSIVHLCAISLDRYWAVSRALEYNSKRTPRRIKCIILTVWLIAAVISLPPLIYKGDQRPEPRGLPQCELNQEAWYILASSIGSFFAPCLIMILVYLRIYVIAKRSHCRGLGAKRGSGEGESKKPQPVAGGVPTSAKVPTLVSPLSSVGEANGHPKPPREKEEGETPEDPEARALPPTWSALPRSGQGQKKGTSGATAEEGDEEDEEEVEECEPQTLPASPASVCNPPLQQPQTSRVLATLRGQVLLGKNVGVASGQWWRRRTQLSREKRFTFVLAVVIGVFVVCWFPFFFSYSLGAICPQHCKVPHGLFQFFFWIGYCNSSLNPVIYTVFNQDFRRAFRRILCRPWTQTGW

Biological target: T1, rat α2B (Rattus norvegicus, UniProt P19328)
T1 construct: expressed in transfected cells; host or cells: CHO cells (CHO-RNG)
Assay: Receptor binding, [3H]rauwolscine, CHO-RNG cells expressing rat α2B
Conditions: 22° C., 30 min
Description: Cell preparation: Chinese hamster ovary (CHO) cells expressing the human α2A and human α2C (CHO-C10 and CHO-C4 respectively) receptors and CHO cells (CHO-RNG) expressing the rat α2B, adrenoceptor were grown to near confluence in Dulbecco's modified Eagle's medium supplemented with 10% fetal bovine serum using standard cell culture methods. Cells were harvested by scraping and placed into cold buffer of the following composition: 50 mM Tris-HCl, 5 mM EDTA, pH 7.4). […] The pellet fraction was washed (resuspended in Tris-HCl, pH 8 buffer and centrifuged for 15-20 minutes at 49,000× g) 2 times and stored at -100° until binding assay.
Binding Studies: The radioligands [^3 H]rauwolscine (specific activity 80 Ci/mmol) and [^3 H]prazosin (specific activity 76 Ci/mmol) were obtained from New England Nuclear, Boston, Mass. […] The filters were then oven dried and transferred to scintillation vials containing 10 mL of Beckman's Ready Protein® scintillation cocktail for counting. […] Protein concentrations were determined with a protein assay kit from Bio Rad. Binding isotherms, equilibrium dissociation and affinity constants were analyzed and determined by the non-linear least squares curve fitting programs EBDA (BioSoft) or AccuFit Competition/Saturation by Beckman. […]

## Brc1c(NC2=NCCN2)ccc2nccnc12 [Example 5]
  Ki: 52 nM
